# From patent publication US20240199535A1, “DEUTERATED DHODH INHIBITORS” (priority 2021, published 2024)
# Test system: SARS-CoV-2
# Experiment: Antiviral activity on SARS-CoV-2, viral replication (YFP) assay
# Format: cell-based
# Conditions: read-out: EC50 range
smiles,measurement,value
"[2H]C([2H])([2H])Oc1cccc(-c2ccc(NC(=O)C3=C(C(=O)O)CCC3)c(F)c2)c1 [Example 1, 2-((3-Fluoro-3′-(methoxy-d3)-[1,1′-biphenyl]-4-yl)carbamoyl)cyclopent-1-ene-1-carboxylic Acid]",EC50,< 10 µM
